Experimental data: PubChem BioAssay (NCI)
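48-hour exposure; five concentrations; linearly interpolated endpoints. GI50 marks 50% less growth. TGI: total growth inhibition.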

Experiments:
Experiment in all cases: growth of human tumour cells (NCI), 48 h; in the data active = GI50 below about 0.43 µM; inactive = the rest
DLD-1 colon = tested on: DLD-1 colon
LXFL 529 NSCLC = tested on: LXFL 529 NSCLC
HOP-18 NSCLC = tested on: HOP-18 NSCLC
SNB-78 CNS = tested on: SNB-78 CNS
DMS 114 small cell lung = tested on: DMS 114 small cell lung
M19-MEL melanoma = tested on: M19-MEL melanoma

Nc1ccccc1Nc1ccccc1C(=O)[O-].Nc1ccccc1Nc1ccccc1C(=O)[O-].[Ni+2]
> 100 µM: TGI (DLD-1 colon) | TGI (LXFL 529 NSCLC) | TGI (HOP-18 NSCLC) | TGI (SNB-78 CNS) | TGI (DMS 114 small cell lung) | TGI (M19-MEL melanoma)
inactive: GI50 (DLD-1 colon) > 100 µM | GI50 (LXFL 529 NSCLC) 44.3 µM | GI50 (HOP-18 NSCLC) 22.9 µM | GI50 (SNB-78 CNS) > 100 µM | GI50 (DMS 114 small cell lung) > 100 µM | GI50 (M19-MEL melanoma) > 100 µM
